## scFv variants of Ab-14 (heavy chain) against a SARS-CoV-2 spike peptide

The target is the same throughout: PDVDLGDISGINAS, from the HR2 region of SARS-CoV-2 spike.

The variants keep the light chain, the linker and the frameworks of Ab-14 (scFv order VH, a 15-residue (Gly4Ser)3 linker, VL).
VH: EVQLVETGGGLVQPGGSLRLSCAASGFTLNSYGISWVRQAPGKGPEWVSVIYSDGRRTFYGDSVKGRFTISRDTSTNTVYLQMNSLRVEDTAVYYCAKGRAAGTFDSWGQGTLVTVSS
VL: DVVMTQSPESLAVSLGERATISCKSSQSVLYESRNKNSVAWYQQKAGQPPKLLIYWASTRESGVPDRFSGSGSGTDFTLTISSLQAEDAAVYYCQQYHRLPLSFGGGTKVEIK

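The parent was found by panning a naive human phage display library on the peptide. This is the validation round: designs drawn from the data on random variants, tested in the same kind of assay. Group labels follow the data file (Ctrl: baseline library sampled from a position-specific scoring matrix, with some repeated check sequences; Rand: our label for a block that the file lists under HC and that is probably the random mutants of the ten best first-round binders; En: ensemble of fine-tuned language models; GP: Gaussian process model; GPLM: also part of the Gaussian process libraries; HC: hill climbing; Gen: genetic algorithm; Gibbs: Gibbs sampling; a sequence that several methods proposed may carry one label only). Affinity was read by AlphaSeq, a pooled yeast mating assay with surface-displayed partners. The frequency of each diploid, read from paired DNA barcodes, reflects how well the two displayed proteins bind. Read counts were normalised to the haploid input and turned into Kd by a linear fit to BCL2-family pairs of known affinity, for each replicate. The assay was run in six technical replicates.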

Positions count from residue 1 of the parent VH; G61T puts T in place of G.
Variants here have at most six changes.
The Kd shown is the geometric mean over detected replicates; a lower Kd is a better binder.
Where no diploid with the target was found in any replicate, the entry reads "no signal": below detection, most likely a poor binder, though not proof of it.
A sequence that the file lists under several names has all its replicates pooled.
Empty control strains, which show no peptide, gave a signal in 1% of pairings with all heavy chain designs; the median was 120 nM and 95% of these signals were weaker than 7.0 nM. No background was subtracted. Also given: how often the same scFv was detected with the empty control strains.
The authors averaged sequences with at least three values out of six and counted those with two or fewer as poor binders.
A sequence measured in both rounds can read differently, since the two assays cover different ranges.

| changes | group | Kd (apparent) | seen in | control signals |
|---|---|---|---|---|
| G61T+R100E+A101E | Ctrl+GPLM_Gibbs | 3.8 nM | 12/12 | 0/36 |
| G61A+R100S+A101E | GPLM_Gibbs | no signal | 0/6 | 0/18 |
| S31E+G61E | Ctrl+GP_HC | 1.9 nM | 12/12 | 0/36 |
| T28D+G61I+R100H+S107W | GP_Gibbs | 5.3 nM | 6/6 | 0/18 |
| T28E+G61H+A102G+F105S | Ctrl | 850 nM | 1/6 | 1/18 |
| T28W+S31E+G61E+S63D+A101T | GP_HC | 360 pM | 3/6 | 0/18 |
| T58Q+G61S+A102G | Rand | no signal | 0/6 | 0/18 |
| G26K+T28S+A101T | GPLM_Gen | no signal | 0/6 | 0/18 |
| G26R+S31E+Y60A+G61T+D62I+A101F | Rand | no signal | 0/6 | 0/18 |
| T28D+S31E+R100Q | GPLM_Gibbs | 2.0 nM | 6/6 | 0/18 |
| T28N+T58Q+Y60M+R100D | Ctrl | 86 nM | 4/6 | 0/18 |
| S31D+S107C | Ctrl | 4.3 nM | 6/6 | 1/18 |
| T28S+S31E+A101T+S107F | GPLM_Gen | 1.7 nM | 6/6 | 0/18 |
| G26H+T28E+R100K+A101T | GP_Gibbs | 31 nM | 3/6 | 0/18 |
| F27E+S31K+S35D+G61Q | Ctrl | no signal | 0/6 | 0/18 |
| T58E+G61D+R100Q+A101L | Rand | 21 nM | 6/6 | 0/18 |
| T28D+T58W+R100Q+A101T | GP_Gibbs | 82 nM | 4/6 | 0/18 |
| R56Q+G61A+S63D+A101V+S107K | GP_Gibbs | 2.5 nM | 6/6 | 1/18 |
| T28W+S31M+F59A+A101Q | GP_Gibbs | no signal | 0/6 | 0/18 |
| T28N+Y32F+T58K+G61H+F105I | Ctrl | no signal | 0/6 | 0/18 |
| T28S+G61A+A101I | GPLM_Gen | 2.7 nM | 6/6 | 0/18 |
| S31E+F59A+G61S | GPLM_HC | 12 nM | 6/6 | 1/18 |
| T28S+F59A+D106N | GPLM_HC | 220 nM | 5/6 | 1/18 |
| G26L+N30T+R56E+R100E | Ctrl | no signal | 0/6 | 1/18 |
| S31E+R56W+G61S+D106T | GP_HC | 46 nM | 6/6 | 0/18 |
| G61S+R100M+A101V | GPLM_HC | 1.4 nM | 6/6 | 1/18 |
| T28D+T104I+F105Y | GP_HC | no signal | 0/6 | 0/18 |
| T28D+G61D+R100K | Ctrl+GPLM_Gen | 2.0 nM | 12/12 | 0/36 |
| T28D+S31E+S53A+G61A+R100N+A101Q | En_HC | 880 pM | 6/6 | 1/18 |
| N30E+R100Q+A101T+S107T | GP_Gibbs | 910 pM | 6/6 | 0/18 |
| R56V+A101V+S107L | GPLM_Gibbs | 58 nM | 5/6 | 1/18 |
| T28N+S63G+A101T | GPLM_Gen | 11 nM | 6/6 | 0/18 |
| R100K+F105V | Ctrl | 9.4 nM | 4/6 | 1/18 |
| N30E+S53A+R100E+S107A | GP_Gibbs | 1.3 nM | 6/6 | 0/18 |
| T28Q+G61Q+R100N | GP_Gen | 8.3 nM | 6/6 | 0/18 |
| S31E+D62W+G103V+S107Q | GPLM_HC | no signal | 0/6 | 0/18 |
| T28S+G61A+R100H+A101E | GPLM_Gibbs | 10 nM | 5/6 | 0/18 |
| G26M+T28D+G61K+A101T | GP_Gen | 66 nM | 1/6 | 0/18 |
| S31E+S35Q+G103V+S107Q | Rand | no signal | 0/6 | 0/18 |
| S31D+F59W+G61Q | GP_HC | 9.0 nM | 6/6 | 0/18 |
| T28S+S31E+A101Q+D106F | GP_Gibbs | 4.3 nM | 5/6 | 0/18 |
| T28H+T104L | Ctrl | no signal | 0/6 | 1/18 |
| T28S+G61Q+A101V | GPLM_Gen | 2.7 nM | 6/6 | 1/18 |
| T28S+A101E+S107T | GPLM_Gen | 480 pM | 6/6 | 1/18 |
| S53A+T104I | Ctrl | no signal | 0/6 | 0/18 |
| L29P+R100E+D106R | Ctrl | no signal | 0/6 | 0/18 |
| K65P+A101F | Ctrl | no signal | 0/6 | 0/18 |
| T28D+T58A+R100Q+A101T | GP_Gibbs | 370 pM | 6/6 | 0/18 |
| T28D+F59M+A101T | GP_Gen | no signal | 0/6 | 0/18 |
| T28S+G61S+S63N+R100E | GPLM_Gen | 1.8 nM | 6/6 | 0/18 |
| T28D+G61I+R100Q+A101L | GP_HC | 1.7 nM | 3/6 | 0/18 |
| A101V+D106P | Ctrl | 16 nM | 4/6 | 0/18 |
| T28D+S31E+R56L | Ctrl | 830 pM | 6/6 | 0/18 |
| T28N+G61D+R100Q+A101I | GPLM_HC | 2.8 nM | 6/6 | 0/18 |
| G61H+R100I+D106E | Ctrl | no signal | 0/6 | 0/18 |
| T28S+S63D+A101Q | GPLM_Gibbs | 2.6 nM | 6/6 | 1/18 |
| T28S+G61A+R100N+A101T | GPLM_Gen | 2.0 nM | 6/6 | 0/18 |
| F27H+S31E+F59A+S63N+S107K | Ctrl | no signal | 0/6 | 0/18 |
| F59A+G61S+R100Q+A101L | GP_HC | 1.3 nM | 6/6 | 0/18 |
| S31D+I51G+G99Y+G103L+D106I | Rand | no signal | 0/6 | 0/18 |
| T28S+N30E+S63Q+A101T | GP_Gibbs | 960 pM | 5/6 | 0/18 |
| T28W+S31E+A101T+S107T | GP_Gen | 6.4 nM | 6/6 | 1/18 |
| T28D+F59A+S63A+A101T | GP_Gen | 950 pM | 5/6 | 0/18 |
| T28Q+S31E+S53A | GP_HC | 1.1 nM | 6/6 | 0/18 |
| T28S+S31E+R100K+S107F | GPLM_Gen | 2.2 nM | 6/6 | 0/18 |

For reference, 9 entries of the list once more:

{"changes": "F59A+G61S+R100Q+A101L", "group": "GP_HC", "Kd (apparent)": "1.3 nM", "seen in": "6/6", "control signals": "0/18"}
{"changes": "T28S+S31E+A101Q+D106F", "group": "GP_Gibbs", "Kd (apparent)": "4.3 nM", "seen in": "5/6", "control signals": "0/18"}
{"changes": "S31E+F59A+G61S", "group": "GPLM_HC", "Kd (apparent)": "12 nM", "seen in": "6/6", "control signals": "1/18"}
{"changes": "T28S+N30E+S63Q+A101T", "group": "GP_Gibbs", "Kd (apparent)": "960 pM", "seen in": "5/6", "control signals": "0/18"}
{"changes": "T28S+S31E+A101T+S107F", "group": "GPLM_Gen", "Kd (apparent)": "1.7 nM", "seen in": "6/6", "control signals": "0/18"}
{"changes": "G26M+T28D+G61K+A101T", "group": "GP_Gen", "Kd (apparent)": "66 nM", "seen in": "1/6", "control signals": "0/18"}
{"changes": "G61T+R100E+A101E", "group": "Ctrl+GPLM_Gibbs", "Kd (apparent)": "3.8 nM", "seen in": "12/12", "control signals": "0/36"}
{"changes": "R100K+F105V", "group": "Ctrl", "Kd (apparent)": "9.4 nM", "seen in": "4/6", "control signals": "1/18"}
{"changes": "G26L+N30T+R56E+R100E", "group": "Ctrl", "Kd (apparent)": "no signal", "seen in": "0/6", "control signals": "1/18"}

Data: MIT Lincoln Laboratory AlphaSeq set, Li et al. 2023, doi:10.1038/s41467-023-39022-2, as distributed in FLAb.